# Source: PubChem (National Center for Advancing Translational Sciences (NCATS))
# This is a sample that favours compounds with a hit; in the whole collection about 1.7% have one here.
# GLP-1R inv ag – inverse agonists of human GLP-1 receptor. HEK293 GLP-1R CRE-luciferase, luminescence, 24 h; GLP-1R form is constitutively active. Potency, µM (highest dose often 38.3 µM), for the others: at the highest dose activity change, negative = inhibition, actives largely listed as inhibitors. 410,000 compounds, 1.6% hits. AID 624417; note: potency is the fitted concentration of half-maximal effect; % is set by controls: 0 for no effect and ±100 for the full control effect; nearly all actives have a fitted effect of over 55% in size
#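 Seeding at 200 cells/uL, 12 h culture, 24 hr compound treatment, then luciferase reagent and a luminescence read; cells are HEK293 stably expressing a constitutively active GLP-1R plus cAMP-responsive luciferase.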
# GLP1R ag – activates the human GLP-1 receptor; P43220; HEK293 GLP-1R CRE-luciferase, luminescence, 4-6 h; cells express a hypersensitive GLP-1R form; Potency, µM (series often up to 45.6 µM), for inactives: top-dose activation, hits mostly activators; 380,000 compounds, 0.007% hits; note: potency is the fitted concentration of half-maximal effect; % of control where 0% means no effect
# Pin1 inhibitor – inhibitors of human Pin1; Pin1 FP peptide displacement, HiFluor488, 10 min; Potency, µM (doses to about 115 µM), inactives show at the highest dose activity, negative = inhibition, most hits filed as inhibitors; 390,000 compounds, 0.009% hits; active = well fitted inhibition curve with a large enough effect in the polarisation, with a control signal flat, not every such curve was filed as active; inconclusive = small, poorly fitted or top-dose-only effect, or effect the other way, or a change in a side signal; inactive = no such curve, though single readings can be large or run the other way; the % refers to the polarisation; note: potency is the fitted concentration of half-maximal effect; % is set by controls: 0 for no effect and ±100 for the full control effect
# miR-21 reporter – raises the signal of a miR-21 reporter | HeLa miR-21 FLuc reporter, luciferase, 48 h | Potency, µM (doses to about 38.3 µM), without a hit: at the top dose reporter change, positive = more light | 340,000 tested, under 10 active | AID 2288; active = well fitted rising curve with a large enough effect; inconclusive = small, poorly fitted or top-dose-only effect; inactive = no such curve, though single readings can be large or run the other way;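 note: % of control where 0% means no effect; miR-21 action dims this reporter so a rising signal means less miR-21 action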
#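 Compounds were titrated across several concentrations (up to approximately 40 uM) and incubated 48 hours with HeLa miR-21-FLuc reporter cells (miR-21 target sequence downstream of FLuc, endogenous miR-21). Readout was firefly luciferase luminescence after lytic detection reagent.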
# GLP1R cytotox – cytotoxicity in counter-screen for GLP-1R inverse agonists; HEK293 cAMP-luciferase reporter cells, luminescence, 24 h; Potency, µM (top dose mostly 38.3 µM), for the others: at the top dose activity change, negative = inhibition, actives largely listed as inhibitors; 410,000 compounds, 0.13% hits; AID 624418;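 note: loss of luciferase light is scored as toxicity; potency is the fitted concentration of half-maximal effect; % is set by controls: 0 for no effect and ±100 for the full control effect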
#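 MLSMR compounds, 24 hr on cells at 37 deg C/5% CO2; luminescence after luciferase reagent (12 min RT). Inhibition counted as the undesired cytotoxic outcome.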
# PTHR1 agonist – PTHR1 (human) receptor agonism | Q03431 | HEK293 GP2 PTHR1 cells, GloSensor cAMP luminescence, 1 h | Potency, µM (highest dose often 115 µM), inactives show top-dose activation, hits mostly activators | 410,000 compounds, 0.075% hits | AID 743266; note: potency is the fitted concentration of half-maximal effect; nearly all actives have a fitted effect of over 55% in size
#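 HEK-293-derived GP2 cells expressing PTHR1 and a GloSensor cAMP reporter, 3,000/well, plated overnight, given luciferin plus IBMX (each 0.5 mM as added) for 1 h at 37 °C, then compound for 1 h at 37 °C. Luminescence was read after 15 min at room temperature.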
# Active calls of the source: *; i = inactive; ? = inconclusive; · = not tested or not shown; [ ] = remark or other dose. Unless noted, calls come from the whole dose curve; as a rule, active = well fitted curve in the direction sought with a large enough effect; inconclusive = small, poorly fitted or top-dose-only effect, or another doubt; inactive = no such curve, though single readings can be large; an effect the other way counts as inactive or inconclusive.
[1] c1ccc(Nc2nc(N3CCNCC3)nc(N3CCOCC3)n2)cc1
[2] CC(=O)Nc1cccc(OC2=NS(=O)(=O)c3ccccc32)c1
[3] CCCC[C@]12Cc3cc(C#N)ccc3C(O1)c1c(c3cc(F)ccc3oc1=O)O2
[4] COc1ccc(C2N=C(Nc3nc4ccccc4o3)NC3=C2C(=O)CC(C)(C)C3)cc1 (stereo not given)
[5] Nc1nc(Cl)nc2c1ncn2[C@@H]1O[C@H](CO)[C@H](O)C1F (stereo not given in full)
[6] CC1CCc2nc(N)c(C#N)c(-c3cccnc3)c2C1 (stereo not given)
[7] CC1CCc2nc(N)c(C#N)c(-c3ccncc3)c2C1 (stereo not given)
[8] CC(C)CCOc1ccc(C(=O)NCC(c2ccco2)N(C)C)cc1 (stereo not given)
entry no.	1	2	3	4	5	6	7	8
GLP-1R inv ag	2.5µM*	·	·	·	·	0.89µM*	19%	7.9µM*
GLP1R ag	3%	·	·	·	26%	-3%	12%	17%
Pin1 inhibitor	3%	-2%	·	2%	·	-6%	4%	2%
miR-21 reporter	-15%	·	0%[7.66 µM]	·	·	20%	3%	-15%
GLP1R cytotox	80%	·	·	·	·	7%	5%	-2%
PTHR1 agonist	?	·	·	·	·	i	12%	i

[9] O=C(c1ccc2c(=O)n3c(nc2c1)CCCCC3)N1CCN(c2ccc(F)cc2)CC1
[10] O=C(c1ccc2c(=O)n3c(nc2c1)CCCCC3)N1CCN(c2ccc(Cl)cc2)CC1
[11] CCC(C)NC(=O)c1ccc(Cn2c(=O)c3cccn3c3cccnc32)cc1 (stereo not given)
[12] COc1cccc(C(=O)Nc2nc(-c3nnn(-c4ccccc4C(F)(F)F)c3C)ns2)c1
[13] COc1cccc(C(=O)Nc2nc(-c3nnn(-c4cc(C)ccc4C)c3C)ns2)c1
[14] Cc1c(CN(C)C)c2c(n1C)C(=O)c1ccc(Br)cc1-2
[15] CCOc1ccc(CNC(=O)c2cc3c(=O)n(Cc4cccs4)ccc3nc2C)cc1
[16] CC1(C)Cc2c(cnn2-c2ccccc2)-c2c1c1ccccc1n2CC(O)CBr (stereo not given)
entry no.	9	10	11	12	13	14	15	16
GLP-1R inv ag	5µM*	7.1µM*	-4%	5.6µM*	-12%	132%	-3%	7.1µM*
GLP1R ag	18%	-4%	·	·	·	0%	·	-8%
Pin1 inhibitor	-6%	2%	2%	14%	10%	3%	26%	0%
miR-21 reporter	0%	12%	-7%	6%	0%	-49%	-3%	1%
GLP1R cytotox	4%	10%	9%	0%	4%	8.9µM*	8%	-28%
PTHR1 agonist	-10%	-8%	?	-14%	-90%	-2%[57.5 µM]	-13%	i

[17] COc1ccc(C2Nc3ccccc3C(=O)N2Cc2ccccc2Cl)cc1COc1ccc(NC(C)=O)cc1 (stereo not given)
[18] Cc1ccccc1Nc1nnc(-c2ccc(C)c(S(=O)(=O)N3CCOCC3)c2)c2ccccc12
[19] Cc1ccccc1Nc1nnc(-c2ccc(C)c(S(=O)(=O)N3CCCCC3)c2)c2ccccc12
[20] Cc1ccc(NC(CNS(=O)(=O)c2ccc(Cl)cc2)c2ccccc2)cc1 (stereo not given)
[21] NS(=O)(=O)c1ccc(NC(CNS(=O)(=O)c2ccccc2)c2ccccc2)cc1 (stereo not given)
[22] COc1cccc(NC(CNS(=O)(=O)c2ccc(Cl)cc2)c2ccccc2)c1 (stereo not given)
[23] COc1cccc(NC(CNS(=O)(=O)c2ccc(C)cc2)c2ccccc2)c1 (stereo not given)
[24] O=C(CSc1nnc(CNC(=O)c2ccccc2)n1-c1cccc(Cl)c1)Nc1ccccc1F
entry no.	17	18	19	20	21	22	23	24
GLP-1R inv ag	·	-7%	3.2µM*	?	?	10µM*	10µM*	6%
GLP1R ag	·	·	·	-26%	-1%	·	·	·
Pin1 inhibitor	-3%	6%	?	0%	-3%	2%	-6%	0%
miR-21 reporter	·	17%	10%	9%	5%	?	26%	13%
GLP1R cytotox	·	0%	1%	6%	-14%	?	-7%	3%
PTHR1 agonist	·	-29%	i	-36%	i	-94%	-24%	24%

# Entries of single compounds, quoted from the list:
# `Cc1c(CN(C)C)c2c(n1C)C(=O)c1ccc(Br)cc1-2` is listed as GLP-1R inv ag = 132%; GLP1R ag = 0%; Pin1 inhibitor = 3%; miR-21 reporter = -49%; GLP1R cytotox = 8.9µM*; PTHR1 agonist = -2%[57.5 µM]
# `Nc1nc(Cl)nc2c1ncn2[C@@H]1O[C@H](CO)[C@H](O)C1F` (stereo not given in full) is listed as GLP-1R inv ag = ·; GLP1R ag = 26%; Pin1 inhibitor = ·; miR-21 reporter = ·; GLP1R cytotox = ·; PTHR1 agonist = ·
# `Cc1ccccc1Nc1nnc(-c2ccc(C)c(S(=O)(=O)N3CCCCC3)c2)c2ccccc12` is listed as GLP-1R inv ag = 3.2µM*; GLP1R ag = ·; Pin1 inhibitor = ?; miR-21 reporter = 10%; GLP1R cytotox = 1%; PTHR1 agonist = i

# New compounds follow
# Key to letters: A = GLP-1R inv ag; B = GLP1R ag; C = Pin1 inhibitor; D = miR-21 reporter; E = GLP1R cytotox; F = PTHR1 agonist
25. Cc1cc(C(=O)NNc2c(Cl)cccc2Cl)no1
  A: 2.5µM*; B: 1%; C: -2%; D: -6%; E: -23%; F: i
26. Cc1cc(C(=O)NNc2ccc(F)cc2)no1
  A: 5µM*; B: 1%; C: 0%; D: 15%; E: ?; F: -53%
27. Cc1cc(C(=O)NNc2ccccc2F)no1
  A: ?; B: 9%; C: 5%; D: 18%; E: ?; F: i
28. CCOc1ccc(NC(=O)NCC2CCN(c3ccc(OC)cc3)C2)cc1 (stereo not given)
  A: -19%; B: -9%; C: -2%; D: 4%; E: -7%; F: -35%
29. COc1ccc(N2CCC(CNC(=O)Nc3ccc(C)c(C)c3)C2)cc1 (stereo not given)
  A: 6.3µM*; B: -1%; C: 7%; D: -16%; E: 3%; F: -61%
30. CN(C)CC/C=C1\c2ccccc2COc2ccc(CC(=O)O)cc21
  A: ·; B: -4%; C: ·; D: ·; E: ·; F: ·
31. COc1ccccc1N1CCN(CCNC(=O)Nc2cccc(C)c2C)CC1
  A: 3.2µM*; B: -8%; C: -2%; D: 4%; E: -14%; F: -11%
32. CCCOc1ccc2c(c1)C(=NN=C(N)N)c1cc(OCCC)ccc1-2
  A: 1.8µM*; B: 5%; C: 0%; D: ?; E: ?; F: i
33. CCO[C@@H](Cc1ccc(OCCc2ccc(OS(C)(=O)=O)cc2)cc1)C(=O)O
  A: ·; B: 7%; C: ·; D: ·; E: ·; F: ·
34. COc1ccccc1/C=C/CN1CCCC(CO)(Cc2cccc(Cl)c2)C1 (stereo not given)
  A: 11µM*; B: 13%; C: -1%; D: 7%; E: ?; F: -15%
35. COc1cccc(CC2(CO)CCCN(C/C=C/c3ccccc3OC)C2)c1 (stereo not given)
  A: ?; B: 3%; C: -1%; D: 3%; E: -5%; F: -7%
36. COc1cc(Cl)c(CN2CCCC(CO)(Cc3cccc(Cl)c3)C2)cc1OC (stereo not given)
  A: 8.9µM*; B: 5%; C: ?; D: 15%; E: -14%; F: i
37. COc1ccc(/C=C/CN2CCCC(CO)(Cc3cccc(Cl)c3)C2)cc1 (stereo not given)
  A: 3.2µM*; B: 22%; C: -6%; D: -3%; E: ?; F: i
38. Cc1cc(OCC(=O)Nc2c(C(=O)c3ccccc3)oc3ccccc23)cc(C)c1Cl
  A: 13%; B: ·; C: -11%; D: 0%; E: 14%; F: -5%
39. O=C(O)CNc1cccc(-c2nn3c(=O)cc(N4CCNCC4)nc3s2)c1
  A: ·; B: ·; C: 10%; D: ·; E: ·; F: ·
40. CCc1nnc(NC(=O)CSc2nc3c([nH]c4ccccc43)c(=O)n2-c2ccc(Cl)cc2)s1
  A: 19%; B: 6%; C: 36%; D: -4%; E: -3%; F: i
41. Cc1ccc(S(=O)(=O)NCc2ccc(C(=O)N3CCN(c4ccccn4)CC3)cc2)cc1
  A: 13µM*; B: -6%; C: -8%; D: 16%; E: -24%; F: -29%
42. O=C(c1ccc(Cl)c([N+](=O)[O-])c1)N1CCN(S(=O)(=O)c2ccc(Cl)cc2)CC1
  A: ?; B: -3%; C: -3%; D: ·; E: -9%; F: -22%
